pEC50, pKd: −log10 of the molar value.
Assays:
[1] = target: membrane fractions from EC (Homo sapiens, UniProt O95800); settings: displacement of [3H8] 20-HETE
From the text: (§1) β-arrestin represents a robust and widely used screening technology for GPCR-ligand pairing. GPCR-mediated β-arrestin recruitment is also recognized as a distinct intracellular signaling pathway, and ligand-receptor interactions may show a bias toward β-arrestin over classical GPCR signaling pathways.

The chains behind the UniProt entries cited, without tags or fusion partners.
UniProt O95800, whole entry: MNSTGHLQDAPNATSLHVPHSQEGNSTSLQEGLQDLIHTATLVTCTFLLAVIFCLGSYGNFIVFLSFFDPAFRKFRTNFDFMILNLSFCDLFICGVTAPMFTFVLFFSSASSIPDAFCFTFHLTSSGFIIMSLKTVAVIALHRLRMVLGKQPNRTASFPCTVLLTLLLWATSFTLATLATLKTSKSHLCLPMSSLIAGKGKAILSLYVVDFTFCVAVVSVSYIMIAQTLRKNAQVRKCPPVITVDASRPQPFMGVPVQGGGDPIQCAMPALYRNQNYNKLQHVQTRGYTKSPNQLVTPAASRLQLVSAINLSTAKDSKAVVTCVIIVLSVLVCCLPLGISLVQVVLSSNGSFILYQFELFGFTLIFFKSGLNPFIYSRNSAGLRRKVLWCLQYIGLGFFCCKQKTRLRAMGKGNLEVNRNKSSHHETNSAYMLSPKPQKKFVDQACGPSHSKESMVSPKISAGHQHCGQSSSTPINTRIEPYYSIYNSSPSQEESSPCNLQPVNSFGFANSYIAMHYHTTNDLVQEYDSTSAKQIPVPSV

GPR75 [2] = target: T1, GPR75 (Homo sapiens, UniProt O95800); assay: β-arrestin GPCR recruitment assay, GPR75 expressed in CHO cells; format: cell-based; design: expressed in transfected cells; host or cells: CHO cells; settings: estimated, read-out: EC50 for activation of GPR75
From the text: as §1

GPR75 [3] = target: T1, GPR75; assay: GPR75 immunoprecipitation in EC (HMVEC); format: cell-based; design: endogenous in cells; host or cells: HMVEC (human microvascular endothelial cells); EA.hy926 lysate is also mentioned
Procedure: Immunoprecipitation of GPR75 in EC further indicated its association with Gαq/11, GIT1 and HIC-5 (FIG. 11a). Incubation of EC with 20-HETE at 10 nM for 5 min increased GPR75-GIT1 association by 2-fold and GPR75-HIC-5 dissociation by 60% (FIGS. 11c and d). No change in GPR75-Gαq/11 association was detected in EC (FIG. 11b).
Immunoprecipitation. […] Western Blot Analysis.

Compound: O=C(O)CCC/C=C\C/C=C\C/C=C\C/C=C\CCCCCO [Analog 20-HETE, 20-hydroxyeicosa-5(Z),8(Z),11(Z),14(Z)-tetraenoic acid]
- pKd [1]: 8.43
- pEC50 (GPR75 [2]): 4.71
- GPR75-Gαq/11 association (GPR75 [3]; EC): No change
- fold induction at 0.01 µM (GPR75 [3]; HMVEC, 5 min, read-out: increase of GPR75-GIT1 association): 2
